Laboratory results published in ChEMBL document CHEMBL1667772 (Bioorg Med Chem Lett, 2011).

The chains behind the UniProt entries cited, without tags or fusion partners. Where a name states a change or a piece, a line headed by the entry shows the natural chain unless it says otherwise.
UniProt P34914: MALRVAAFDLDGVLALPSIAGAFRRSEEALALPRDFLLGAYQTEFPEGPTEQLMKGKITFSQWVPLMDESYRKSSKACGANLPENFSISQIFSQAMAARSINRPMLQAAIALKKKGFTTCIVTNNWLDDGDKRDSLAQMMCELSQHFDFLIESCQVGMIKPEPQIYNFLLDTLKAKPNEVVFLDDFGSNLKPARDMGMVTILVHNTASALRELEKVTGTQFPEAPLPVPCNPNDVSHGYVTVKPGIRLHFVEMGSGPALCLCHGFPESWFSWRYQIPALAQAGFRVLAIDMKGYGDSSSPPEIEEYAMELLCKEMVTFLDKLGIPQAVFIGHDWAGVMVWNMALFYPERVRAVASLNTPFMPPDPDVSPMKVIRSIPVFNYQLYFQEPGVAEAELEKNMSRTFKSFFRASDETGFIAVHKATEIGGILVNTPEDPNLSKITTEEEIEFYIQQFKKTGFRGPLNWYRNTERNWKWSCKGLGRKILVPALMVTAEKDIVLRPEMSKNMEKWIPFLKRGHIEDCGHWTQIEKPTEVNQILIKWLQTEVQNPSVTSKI

Legend:
[1] = target: Bifunctional epoxide hydrolase 2 (Mus musculus, UniProt P34914)
Mus musculus = species: Mus musculus; assay: animal or person; details: po, read-out: INH

Molecule `CC(=O)N1CCC(NC(=O)NC23CC4CC(CC(C4)C2)C3)CC1` [AR9281] has an IC50 [1] of 3 nM and an inhibition in vivo at 100 mg/kg (Mus musculus) of 70%.
